# According to PubChem BioAssay AID1347120 (National Center for Advancing Translational Sciences (NCATS), 2019):
# This is a selection; strong and weak results do not stand in their true shares. Records with an inconclusive call do not appear. Calls of active or inactive are those of the source. Calls come from the whole dose curve; as a rule, active = well fitted activation curve with a large enough effect; inconclusive = small, poorly fitted or top-dose-only effect; inactive = no such curve, though single readings can be large or run the other way.
# Test: qHTS for Suppressors of FUS Proteinopathy: Primary screen using FUS-linked yeast assay;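 note: plate controls were DMSO vehicle for no effect and reference control for full effect; nearly all actives have a fitted effect of over 55% in size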
# Conditions: S. cerevisiae FUS-expressing, OD600, 24 h; at 76.6 µM (top of the series)
# From the text: Several widespread neurodegenerative diseases, including Alzheimer disease, Huntington disease, Frontotemporal Lobar Degeneration (FTLD) and Amyotrophic Lateral Sclerosis (ALS), share a common pathological feature, namely accumulation of specific protein aggregates in diseased tissue. These diseases which is associated with protein misfolding (proteinopathies) have become increasingly problematic as the population ages and life expectancies are extended. Most proteinopathies are currently incurable, a situation confounded by the fact that the basis of neurodegeneration is generally poorly understood. There exists urgent and significant need to find therapeutics that can inhibit the toxicity associated with protein aggregation. A novel approach to understand the underlying mechanisms of neurodegenerative diseases has recently emerged in which the disease conditions are modeled in the yeast (Saccharomyces cerevisiae), a tractable eukaryotic organism with conserved protein quality control mechanisms. Yeast offers quick and reliable genetic manipulations and can be easily tailored to high-throughput screening (HTS).
# For this project, a yeast model of the FUS proteinopathies (a spectrum of neurodegenerative diseases that include ALS and a subtype of FTLD) was generated and employed. The cytoplasmic accumulation of the DNA/RNA-binding protein FUS (also known as TLS) is causative to both familial and sporadic forms of ALS and FTLD. This yeast model recapitulates neuronal pathology by showing severe cytotoxicity associated with cytoplasmic accumulation of FUS aggregates and a specific interaction between FUS and TDP-43, another ALS-associated protein. […] Specifically, the cellular accumulation of misfolded FUS that disrupts RNA homeostasis in both yeast and higher eukaryotes. This model was validated to be suitable for quantitative HTS (qHTS) use for finding genetic or chemical factors that restore growth. […] Identified compounds that inhibits FUS-yeast toxicity is flagged, re-acquired, and validated for further investigation and optimization.
# NIH Chemical Genomics Center [NCGC]
# NIH Molecular Libraries Probe Production Centers Network [MLPCN]
# Assay Submitter (PI): Frank Shewmaker PhD, Uniformed Services University of the Health Sciences
# Compound CP55940 was used as the positive control. Column 1 was treated with CP55940 titration from 92uM (final concentration, 1:2 dilution), while Column 2 was treated with top dose 92uM. Columns 3 and 4 were treated with DMSO only as negative control to assess background and noise signal.
# Four hundred fifty microliter of cultured yeast (in 20mL rich medium) provided by Dr. Shewmaker lab was incubated at 30C at 99% humidity for 3hr. The culture was then spun down at 4000rpm for 5min and the cell pellet was resuspended in 2mL of Sdmin Media + ALU(330) + 2.5% Raffinose. One hundred microliter of the suspension was added to 900uL of water and OD of the solution was obtained. Twenty mL of responding medium (provided by Shewmaker lab) + 2.5% raffinose was added to ensure cell density of 0.1; the solution was incubated overnight. Working cell solution (FUS-yeast in Sdmi + Sdmi + 1X ALU + 2% galactose media) was prepared (final OD at 0.005) and 3uL was dispensed in a 1536-well Aurora high based clear bottom assay plates. Controls and library compounds (at various final concentrations from 40uM to 0.32uM) were added using a 1536-well pin array using the Kalypsys pin-tool. The plates were then incubated for 24hrs in a cell-culture incubator (30C; 99% humidity). Absorbance at 600nm was then read using the PerkinElmer ViewLux plate reader.
row,SMILES,growth rescue (activation)
1,COc1ccccc1CNC(=O)COC(=O)C(O)(c1ccccc1)c1ccccc1,inactive: 3.88%
2,CC1(CBr)Cn2c(nc3ccccc3c2=O)S1 (stereo not drawn),inactive: 4.62%
3,CN(C(=O)Cc1ccc(Cl)c(Cl)c1)[C@@H]1CCCC[C@H]1N1CCCC1,inactive: -24.8%
4,CC(C)/C=N\N=C(\N)N[N+](=O)[O-],inactive: -24.8%
5,CN(CCCl)Cc1cc(Cl)c(NC2=NCCN2)c(Cl)c1,inactive: -15.5%
6,CCOP(=O)(Nc1ccc(C)cn1)OCC,inactive: -7.44%
7,CCOP(=O)(NC(=NC(C)c1ccccc1)NC(C)c1ccccc1)OCC (stereo not drawn),inactive: 26.7%
8,CCC1=CC2Cc3nc4ccc(Cl)cc4c(N)c3C(C1)C2 (stereo not drawn),inactive: -11.5%
9,O=P1(Nc2ccccn2)COc2ccccc2OC1,inactive: -3.93%
10,CC(C)(C)C(=O)NC(Sc1ncccn1)C(Cl)(Cl)Cl (stereo not drawn),inactive: -21.7%
11,Clc1n[nH]nc1-c1nn[nH][15n]1,inactive: 8.22%
12,O=P1(N(CCCl)CCCl)NCCC(C(F)(F)F)O1 (stereo not drawn),inactive: -31.9%
13,O=P1(Nc2ncccn2)COc2ccccc2OC1,inactive: -20.4%
14,Cc1ccc(S(=O)(=O)N(CCCN)CCCc2c(C)nc(N)[nH]c2=O)cc1,inactive: -12.6%
15,NS(=O)(=O)c1cccc(NC(=O)COC(=O)C(O)(c2ccccc2)c2ccccc2)c1,inactive: -5.08%
16,O=P1(Nc2ccc(Br)cn2)COc2ccccc2OC1,inactive: 19.3%
17,O=[As](O)(c1cccs1)c1cccs1,inactive: -35%
18,Cc1ccc(OCC(=O)OC2CN3CCC2CC3)cc1 (stereo not drawn),inactive: 5.87%
19,Nc1cccc([As](=O)(O)c2ccccc2)c1,inactive: -17%
20,Cc1ccc(C(=O)OC2CN3CCC2CC3)cc1 (stereo not drawn),inactive: -30.6%
21,CC1CCC(C(C)C)C(OP(=O)(Nc2ccccn2)c2ccccc2)C1 (stereo not drawn),inactive: 32.4%
22,Cc1nn(-c2ccccc2)c2c1P(=O)(N1CCOCC1)N(C)C(c1ccccc1)=N2 (stereo not drawn),inactive: -5.72%
23,CCCC1OP(=O)(Nc2ccccc2)OCC1CC (stereo not drawn),inactive: 12.3%
24,O=C(/C=C/c1ccccc1)OC1CN2CCC1CC2 (stereo not drawn),inactive: 14%
25,CN(C)C1(CNC(=O)c2ccc(S(C)(=O)=O)cc2)CCCCC1,inactive: -15.2%
26,NC(=O)Nc1ccc([As](=O)(O)O)cc1,inactive: -16.7%
27,CN(C(=O)Cc1ccc(Cl)c(Cl)c1)[C@H]1CC[C@@]2(CCCO2)C[C@@H]1N1CCCC1,inactive: -17.1%
28,CN(C)C(=O)c1cc([N+](=O)[O-])cc2c1-c1c(cc([N+](=O)[O-])cc1[N+](=O)[O-])C2=O,inactive: 0.723%
